Biological target: T1, SHANK1 PDZ domain (656–762) (Homo sapiens, UniProt Q9Y566)
T1 construct: Human SHANK1 PDZ domain (656–762) was prepared as described previously; GST (N, cleaved yes); made in house; host or cells: E. coli BL21 Gold (pGEX-6P-2)
T1 sequence (Q9Y566 656-762): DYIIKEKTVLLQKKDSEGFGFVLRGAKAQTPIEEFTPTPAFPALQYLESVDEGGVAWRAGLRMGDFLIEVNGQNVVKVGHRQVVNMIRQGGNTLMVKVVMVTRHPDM
Experiment: Isothermal titration calorimetry (ITC)
Assay type: binding

Kd: 1.6 µM
Structure (SMILES): CC(=O)N[C@@H](CCC(=O)O)C(=O)N[C@@H](C)C(=O)N[C@@H](CCC(N)=O)C(=O)N[C@H](C(=O)N[C@@H](CCCNC(=N)N)C(=O)N[C@@H](CC(C)C)C(=O)O)[C@@H](C)O [GKAP PBM, reference compound]
